Test results as given in patent publication US10806707B2, “Cannabis oil compositions and methods for preparation thereof” (priority 2015, dated 2020).

The chains behind the UniProt entries cited, without tags or fusion partners.
UniProt P34972, whole entry, species assumed: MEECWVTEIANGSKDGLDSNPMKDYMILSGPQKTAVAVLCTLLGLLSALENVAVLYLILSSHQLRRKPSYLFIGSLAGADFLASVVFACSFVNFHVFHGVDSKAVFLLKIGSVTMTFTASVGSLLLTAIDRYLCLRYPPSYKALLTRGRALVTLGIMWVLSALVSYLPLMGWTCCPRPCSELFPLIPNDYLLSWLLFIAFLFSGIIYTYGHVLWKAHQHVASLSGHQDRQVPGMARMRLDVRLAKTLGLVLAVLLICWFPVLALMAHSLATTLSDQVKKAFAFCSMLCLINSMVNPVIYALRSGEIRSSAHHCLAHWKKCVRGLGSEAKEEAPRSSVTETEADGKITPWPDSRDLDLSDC

Legend:
CNR2 (also known as CB2) [1] = target: T1, CNR2 (also known as CB2) (Homo sapiens, UniProt P34972); assay: cAMP competitive inhibition immunoassay (HitHunter), CNR2 activation; assay type: cell-based; conditions: CNR2, cAMP assay
T1 construct: β-galactosidase enzyme fragment (implied by the complementation read-out)

CNR2 (also known as CB2) [2] = target: T1, CNR2 (also known as CB2); assay: β-arrestin GPCR assay (PathHunter), CNR2 activation; assay type: cell-based; conditions: CNR2, β-arrestin recruitment

(−)-cannabidiol [CBD]
EC50 (CNR2 (also known as CB2) [1]): > 16.7 µM | EC50 (CNR2 (also known as CB2) [2]): > 16.7 µM
